Results taken from article PMC6270012, “Inhibitory Evaluation of Sulfonamide Chalcones on β-Secretase and Acylcholinesterase” (Molecules, 2012).
pIC50: −log10 of the molar value.

Chains of the proteins cited; added tags and fusions are not shown.
UniProt P81908, whole entry: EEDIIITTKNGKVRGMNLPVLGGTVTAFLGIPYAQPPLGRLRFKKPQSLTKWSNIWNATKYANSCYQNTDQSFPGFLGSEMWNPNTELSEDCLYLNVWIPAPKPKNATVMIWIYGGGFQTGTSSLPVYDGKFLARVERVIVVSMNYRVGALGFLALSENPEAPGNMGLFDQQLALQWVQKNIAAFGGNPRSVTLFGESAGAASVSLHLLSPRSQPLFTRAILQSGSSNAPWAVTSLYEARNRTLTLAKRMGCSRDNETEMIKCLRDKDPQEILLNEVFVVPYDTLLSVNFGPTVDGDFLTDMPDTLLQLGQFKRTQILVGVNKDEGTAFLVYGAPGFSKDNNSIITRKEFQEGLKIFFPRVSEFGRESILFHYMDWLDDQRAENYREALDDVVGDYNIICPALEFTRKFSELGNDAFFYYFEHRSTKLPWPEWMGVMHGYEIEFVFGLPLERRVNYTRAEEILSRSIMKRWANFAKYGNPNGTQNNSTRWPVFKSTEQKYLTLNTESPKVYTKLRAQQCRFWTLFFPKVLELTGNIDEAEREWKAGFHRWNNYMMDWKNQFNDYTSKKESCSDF

Molecular target: T1, equine serum BChE (Equus caballus, UniProt P81908)
T1 construct: 2 μL of equine serum BChE (0.05 U/mL) solution; from tissue; host or cells: equine serum
Experiment: Cholinesterase inhibitory activity (Ellman), BChE
Assay type: biochemical
Protocol: Cholinesterase was assayed according to standard procedures by following the hydrolysis of acetylthiocholine iodide (AtCh) or butyrylthiocholine iodide (BtCh) by monitoring formation of 5-thio-2-nitrobenzoate from 5-5'-dithiobis(2-nitrobenzoic acid) spectrometrically at 412 nm. The reaction mixture contained 100 mM sodium phosphate buffer (pH 8.0), 20 μL of test sample solution and either 2 μL of human erythrocyte AChE (0.25 U/mL) or 2 μL of equine serum BChE (0.05 U/mL) solution, which were mixed and incubated for 10 min at room temperature. Assays were then initiated with the addition of 30 μL 5-5'-dithiobis(2-nitrobenzoic acid) (3.3 mM) and, respectively, 20 μL of AtCh (1 mM), and 7 μL of BtCh (1 mM). All assays were performed in triplicate. […] Kinetic parameters were determined using the Lineweaver-Burk double-reciprocal-plot method at increasing concentration of substrates and inhibitors.

## CNC(=O)Oc1ccc2c(c1)[C@]1(C)CCN(C)[C@@H]1N2C [Eserin, eserine, reference compound]
  pIC50: 5.43
